In patent publication US20210284690A1 (SWEDISH ORPHAN BIOVITRUM AB PUBL, published 2021):

Target: IL-1β
Assay: cell-based or functional assay

B1: PSI0541, IL1RA-G4SG4SG4S-[half-life extending polypeptide moiety]-GS-IL1RA (ligand)
chain: RPSGRKSSKMQAFRIWDVNQKTFYLRNNQLVAGYLQGPNVNLEEKIDVVPIEPHALFLGIHGGKMCLSCVKSGDETRLQLEAVNITDLSENRKQDKRFAFIRSDSGPTTSFESAACPGWFLCTAMEADQPVSLTNMPDEGVMVTKFYFQEDEGGGGSGGGGSGGGGSPVPPTGDSEATPVPPTGDSETAPVPPTGDSGAPPVPPTGDSGAPPVPPTGDSGAPPVPPTGDSGAPPVPPTGDSGAPPVPPTGDSGAPPVPPTGDSGAPPVPPTGDSGAPPVPPTGDAGPPPVPPTGDSGAPPVPPTGDSGAPPVTPTGDSETAPVPPTGDSGAPPVPPTGDSEAAPVPPTDDSKEAGSRPSGRKSSKMQAFRIWDVNQKTFYLRNNQLVAGYLQGPNVNLEEKIDVVPIEPHALFLGIHGGKMCLSCVKSGDETRLQLEAVNITDLSENRKQDKRFAFIRSDSGPTTSFESAACPGWFLCTAMEADQPVSLTNMPDEGVMVTKFYFQEDE
  NHDF IC50 (pM); inhibition of IL-1β induced IL-6 release from NHDF cells: 400 pM
